ARNT TACC3 PPI = ARNT/TACC3 interaction disruption; AlphaScreen His-ARNT PAS-B/GST-TACC3 binding, luminescence; TACC3 fragment carries E629A point mutation; inhibition, % at 9.99 µM; hit rate 0.66% among 390,000; AID 623870;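 active = mean inhibition of replicates at least 50% and at least half of replicates each reaching 50%; inconclusive = half or more replicates reach 50% but mean below 50%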;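 also: 0% = complete ARNT plus TACC3 wells and 100% = ARNT alone without TACC3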
MLL AF4-AF9 inh = inhibitors of human MLL-AF4/AF9 interaction. P42568. AlphaScreen, biotin-AF4 peptide binding to FLAG-AF9. inhibition, % at 10 µM. hit rate 0.47% among 350,000;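 active = every replicate reaching a set inhibition limit, whatever the replicate mean, cut at about 25% in these data; inconclusive = mean inhibition reaches that limit but some replicates miss it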;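 also: 0% = plate neutral control median and 100% = total signal loss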
S100A4 inh HTS = S100A4-myosin IIA interaction inhibition | S100A4/TAMRA-MyoIIA peptide fluorescence polarization | P26447 | hit rate 0.14% among 360,000 | inhibition, % at 10.7 µM;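 active = mean inhibition of at least 70% across replicates, with every replicate also reaching that level; inconclusive = mean inhibition reaches 70% but some replicates fall short; inactive = mean inhibition below 70%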
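Material: human S100A4 monomer with TAMRA-labelled myosin IIA peptide; buffer or medium: HEPES pH 7.2 with CaCl2, KCl, NaCl, DTT, Triton; compound dosing: one concentration per compound; schedule: 5 min incubation before reading; benchmarks: neutral control DMSO, positive control TFP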
Yeast UUG start = yeast start codon fidelity modulation; AID 602363; activity score, % at 18.7 µM; S. cerevisiae UUG-firefly luciferase reporter, luminescence/redox ratio; 0.13% of 350,000 active;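 active means replicate mean at a twofold rise or more, about +100% in these data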;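 further: firefly luciferase made from a UUG start codon reports start codon fidelity; reporter light over untreated wells divided by growth signal over untreated wells; some hits fall short of that in this replicate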
E-sel inducer = induces E-selectin expression in human endothelial cells; P16581; HUVEC E-selectin immunofluorescence imaging; normalized: neutral wells 0, TNF-alpha wells 100; activation, % at 7.58 µM; hit rate 0.37% among 260,000;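 active = mean E-selectin-positive cell signal at least 10% of the positive control, reached in at least 60% of replicates, without over 20% cell loss; inconclusive = no rule given, readout overlaps actives, possibly toxicity-flagged; inactive = the rest, including those meeting only one limit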
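Assay system: HUVEC, human umbilical vein endothelial cells / Amount: 3,000 HUVEC/well / Controls: TNF-alpha positive control, DMSO neutral control / Compound dosing: single concentration / Medium: EGM-2 over gelatin coat / Evaluation: percent E-selectin-positive cells / Signal: immunofluorescence imaging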
ERAP1 HTS inh = ERAP1 (human) enzyme inhibition. Q9NZ08. recombinant ERAP1, Leu-AMC fluorescence, 60 min. inhibition, % at 10.7 µM. hit rate 0.15% among 340,000;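 active = mean replicate inhibition of at least 30%, or all replicates individually reaching that 30% level; inactive = mean below 30% and not every replicate reaching it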;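 also: 0% = neutral control wells and 100% = L-leucinethiol positive control wells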
* hit, by the source's call; ? = inconclusive; · = not tested or not shown. Rows were chosen to be rich in hits. Some 1.3% of all compounds tested hit in one or more screens of this group.

SMILES	ARNT TACC3 PPI	MLL AF4-AF9 inh	S100A4 inh HTS	Yeast UUG start	E-sel inducer	ERAP1 HTS inh
O=C(C[C@@H]1C[C@@H]2c3cc(NC(=O)C4CCOCC4)ccc3O[C@@H]2[C@@H](CO)O1)NCc1cc(F)ccc1F	-5	8	-13	·	1	1
COc1cccc(OC)c1C(=O)NNC(=O)c1cccnc1	-4	35*	2	-21	-3	1
COc1ccc(C2/C=C\CN(S(=O)(=O)c3cccc4cccnc34)CC(=O)N2Cc2ccc(F)cc2)cc1 (stereo not drawn)	-5	-2	91*	-22	0	·
O=C(c1cccc(S(=O)(=O)NCc2ccccc2)c1)N1CCN(c2ccc(F)cc2)CC1	1	26*	-3	-4	0	1
C[C@H]1CN([C@@H](C)CO)C(=O)c2ccccc2-c2ccccc2CO[C@H]1CN(C)C(=O)c1ccc(F)cc1	-10	-2	3	·	0	2
CCCC(=O)NC(c1ccc(C(C)C)cc1)c1ccc2cccnc2c1O (stereo not drawn)	-2	-1	-7	-16	0	-4
CCN1CCN(C(c2ccc(C(F)(F)F)cc2)c2ccc3cccnc3c2O)CC1 (stereo not drawn)	80*	85*	-3	-28	0	2
COCC(=O)N1[C@@H]2Cn3c(ccc(/C=C/c4ccccc4)c3=O)[C@H]1[C@@H](C(=O)N1CCCCC1)[C@@H]2CO	-4	2	?	·	1	-1
O=C(O)[C@@H]1[C@@H](CO)[C@@H]2Cn3c(ccc(/C=C/c4ccccc4)c3=O)[C@@H]2N1C(=O)C1CCCC1	·	-12	110*	·	0	0
COCC(=O)N1[C@@H]2c3ccc(/C=C/c4ccccc4)c(=O)n3C[C@H]1[C@H](CO)[C@H]2C(=O)N1CCOCC1	3	2	10	·	0	108*

The final two entries of the part before come first, to join the parts:
SMILES	ARNT TACC3 PPI	MLL AF4-AF9 inh	S100A4 inh HTS	Yeast UUG start	E-sel inducer	ERAP1 HTS inh
O=C(O)[C@@H]1[C@@H](CO)[C@@H]2Cn3c(ccc(/C=C/c4ccccc4)c3=O)[C@@H]2N1C(=O)C1CCCC1	·	-12	110*	·	0	0
COCC(=O)N1[C@@H]2c3ccc(/C=C/c4ccccc4)c(=O)n3C[C@H]1[C@H](CO)[C@H]2C(=O)N1CCOCC1	3	2	10	·	0	108*
O=C(Nc1ccccc1)[C@@H]1[C@@H](CO)[C@@H]2Cn3c(cccc3=O)[C@@H]2N1C(=O)C1CCC1	-9	-1	13	-16	0	2
COc1ccccc1CNC(=O)C[C@H]1CC[C@@H](NC(C)=O)[C@@H](CO)O1	-4	-1	-27	-17	0	-4
CCc1ccc(NS(=O)(=O)c2ccc3c(c2)oc(=O)n3C)cc1	2	35*	-5	-6	11	-4
O=C(O)CCCCC1SCC2NC(=O)NC21 (stereo not drawn)	0	70*	3	14	·	-2
C[C@H](NC(=O)[C@H]1[C@H](CO)[C@H]2Cn3c(ccc(-c4ccccc4F)c3=O)[C@@H]1N2C)c1ccccc1	-3	2	-1	·	-1	-3
COc1ccc(CN2C[C@H](O)COC[C@H]3O[C@H](CC(=O)NCc4ccccc4Cl)CC[C@@H]32)cc1	-12	2	-1	-20	0	-1
CCOc1ccc(Nc2c3ccccc3nc3ccccc23)cc1	14	37*	0	-22	0	-70
CCOc1ccc(Nc2cc(C)c3ccccc3n2)cc1	-3	8	-1	-6	0	-3
Cc1cc(C)c(S(=O)(=O)/N=C2\C=C(Nc3ccc(C(=O)O)cc3)C(=O)c3ccccc32)c(C)c1	·	-2	8	-23	0	-1
Cc1cc(C)c(S(=O)(=O)/N=C2/C=C(SCC(=O)O)C(=O)c3ccccc32)cc1C	74*	·	·	·	·	·
Cc1ccccc1-c1ccc(C2[C@@H]3CN(S(=O)(=O)c4cn(C)cn4)C[C@H]2N3)cc1 (stereo partly drawn)	·	-4	1	·	0	4
c1ccc2c3c([nH]c2c1)CCNC3	20	25*	3	-11	·	3
O=c1[nH]c(=O)c2[nH]c(=S)[nH]c2[nH]1	-25	-6	13	·	0	50*
CCCNC(=O)[C@H]1[C@H](CO)[C@H]2Cn3c(ccc(-c4ccccc4OC)c3=O)[C@H]2N1S(C)(=O)=O	·	-2	9	·	-1	3
Cc1ccc(C)c(S(=O)(=O)N2CCCCC2CCNC(=O)C(=O)NCCc2ccco2)c1 (stereo not drawn)	-12	-3	-5	-8	62*	2
Oc1ccc(CNc2ccc(F)cc2)c2cccnc12	·	·	·	-21	·	·
NC(=O)c1cccc2ccccc12	-3	1	5	-34	0	1
OCc1ccnc2c(O)cccc12	66*	·	·	-14	·	·
NC(=O)c1ccnc2c(O)cccc12	73*	-2	4	-11	0	-2
Oc1ccc(CNc2ccccc2)c2cccnc12	48*	·	·	-26	·	·

Individual results from the entries so far.
`NC(=O)c1ccnc2c(O)cccc12` in ERAP1 HTS inh has -2
`O=C(Nc1ccccc1)[C@@H]1[C@@H](CO)[C@@H]2Cn3c(cccc3=O)[C@@H]2N1C(=O)C1CCC1` in S100A4 inh HTS has 13

The listing continues.
SMILES	ARNT TACC3 PPI	MLL AF4-AF9 inh	S100A4 inh HTS	Yeast UUG start	E-sel inducer	ERAP1 HTS inh
CN(C(=O)Cn1c(Cl)nc2c1c(=O)n(C)c(=O)n2C)C1CCS(=O)(=O)C1 (stereo not drawn)	·	3	-3	-13	·	83*
CCC(C)N(C(=O)Cn1c(Cl)nc2c1c(=O)n(C)c(=O)n2C)C1CCS(=O)(=O)C1 (stereo not drawn)	-6	0	-4	-17	0	-1
CCCCCC(=O)NNC(=S)NC(C)=O	71*	-1	1	·	1	-1
C#CCn1c(=NC(=O)c2cccs2)sc2cccc(OCC)c21	1	-18	-7	-9	·	7
C#CCn1c(=NC(=O)c2ccc(Cl)s2)sc2cccc(OC)c21	-5	-4	2	-7	0	30*
NC(=O)[C@@H]1CCCCNc2c(F)cc([N+](=O)[O-])cc2C(=O)N[C@@H](CCCN=C(N)N)C(=O)NCC(=O)N1	6	20	-5	-4	-1	17
NCCCC[C@@H]1NC(=O)c2cc([N+](=O)[O-])cc(F)c2NCCCC[C@@H](C(N)=O)NC(=O)[C@H](CCC(N)=O)NC1=O	11	27*	-4	-7	0	·
C[C@H](CO)N1C[C@H](C)[C@@H](CN(C)C(=O)c2cnccn2)Oc2cc(C#CC3CC3)ccc2S1(=O)=O	0	-2	7	8	0	0
COc1cccc(C(=O)Nc2cc(C)c3c(=O)oc4ccccc4c3n2)c1	-2	43*	-5	-32	?	-4
Cc1cc(NC(=O)Cc2ccccc2)nc2c1c(=O)oc1ccccc12	-1	5	4	-5	0	·
Cc1ccc(/C=C2/SC(=O)N(CC(=O)N3CCOCC3)C2=O)s1	-8	5	106*	-7	7	2
Cc1ccc(/C=C/c2ccc3cccc(O)c3n2)s1	·	42*	1	-42	·	1
Oc1cccc(/C=C/c2ccc3cccc(O)c3n2)c1	13	-1	-3	-48	0	-2
CCCC#Cc1cnc2c(c1)C(=O)N([C@@H](C)CO)C[C@H](C)[C@@H](CN(C)S(=O)(=O)c1cn(C)cn1)O2	-10	-2	13	-9	0	-1
C[C@H](O)C#Cc1ccc2c(c1)O[C@H](CN(C)C(=O)CC1CC1)[C@H](C)CN([C@@H](C)CO)S2(=O)=O	-3	0	13	7	0	3

3 entries already listed, sorted by molar mass, highest first.
SMILES	ARNT TACC3 PPI	MLL AF4-AF9 inh	S100A4 inh HTS	Yeast UUG start	E-sel inducer	ERAP1 HTS inh
CCCC#Cc1cnc2c(c1)C(=O)N([C@@H](C)CO)C[C@H](C)[C@@H](CN(C)S(=O)(=O)c1cn(C)cn1)O2	-10	-2	13	-9	0	-1
C[C@H](O)C#Cc1ccc2c(c1)O[C@H](CN(C)C(=O)CC1CC1)[C@H](C)CN([C@@H](C)CO)S2(=O)=O	-3	0	13	7	0	3
Cc1ccc(/C=C/c2ccc3cccc(O)c3n2)s1	·	42*	1	-42	·	1

Compound activity: PubChem, Broad Institute
